Patent US20090292146A1, “[…] PRECURSOR FOR AN Rh COMPLEX […]” (Evonik Oxeno GmbH, priority 2006, published 2009)

Assay: Solubility of catalyst precursors in various solvents (Rh concentration in the supernatant of a saturated solution)
Type: physicochemical
Settings: saturated solution warmed to about 60° C., stood overnight, filtered at room temperature

Substance	Solubility in mg/kg (mg of Rh/kg of solvent) (in isopropanol)	Solubility in mg/kg (mg of Rh/kg of solvent) (in propylene carbonate)	Solubility in mg/kg (mg of Rh/kg of solvent) (in toluene)
HRh(triphenylphosphine)3(CO)	140 mg/kg (mg of Rh/kg of solvent)	530 mg/kg (mg of Rh/kg of solvent)	470 mg/kg (mg of Rh/kg of solvent)
rhodium nonanoate [Rh nonanoate]	5100 mg/kg (mg of Rh/kg of solvent)	30 mg/kg (mg of Rh/kg of solvent)	19 000 mg/kg (mg of Rh/kg of solvent)
